The numbers were not newly measured in US7208580B2, “Atomic structure of the hemalbumin complex and its use in designing therapeutic compounds” (New Century Pharmaceuticals, Inc., priority 2002, dated 2007), which cites them from elsewhere.

The conditions of the data set: native (unmodified) complex; 'long been established'.

“native hemalbumin complex: complex of hemin and human serum albumin combined in a 1:1 molar ratio”: the “activity as an oxygen binding protein” value is “inactive”.
